Patent US20160303095A1, “METHODS OF TREATING HEPATITIS B VIRUS” (Gilead Sciences, Inc., priority 2015, published 2016)

Test: Alamar Blue cell viability assay
Assay type: cell-based
Settings: human; PHH
Procedure: Alamar Blue cell viability reagent (Cat#DAL1100 Life Technologies, Chicago, Ill.) was diluted 1 to 10 in Maintenance Media and added to the cells. Cells were incubated for 4 h at 37° C. and the fluorescence signal, which is proportional to the number of live cells, was read using a fluorimeter with excitation/emission spectra set at 560/590 nm, respectively. Data were converted into percentages of the untreated control and non-linear regression was performed to calculate CC50 values.
PHH were plated in collagen coated tissue culture plates in Plating Media and after 4-hour incubation at 37° C., cells were switched to Maintenance Media. On the next day, the cells were infected with 500 genome equivalents per cell of Genotype-A clinical isolate 21P (ProteoGenex, Culver City, Calif.) in 100 μl Maintenance Media supplemented with 4% PEG 8000 (Cat#V3011 Promega, Madison, Wis.). After an overnight incubation the inoculum was removed and the cells were washed three times with William's Media E and maintained in Maintenance Media. […] Following the transfection, the cells were incubated at 37° C. in a humidified incubator and media was changed every 3-4 days. The assay was terminated on day 14 post infection and cell viability was assessed by Alamar Blue. […]

## O=C(O)c1ccc(O)c2ncccc12 [Example 2, 8-HQ-5-COOH, reference compound]
  CC50: ≥ 100 µM
